The data set is described as follows: Average plasma concentration of spinosyns in cats' blood (Example 1). It is filed as in vivo. Conditions: feline, typical single monthly dose. The procedure: Each cat in test groups 2-4 is to receive by mouth a liquid formulation of spinosyn, preferably spinosad.
Using the same study method as described above, blood is to be drawn at 72, 120, 168, 336, 504, 720 and 888 hours after the initial dose of spinosyn is administered. The average concentration of spinosyn in the blood for different dosage levels can then be determined.

In the case of spinosad, the “plasma concentration of spinosad” value runs as follows: (12 hours after the dose) about 6.107 µg/mL; (one hour after the dose) “about 878 ng/ml”.
